# Experimental data taken from patent US20110224276A1, “OPTICAL ISOMER OF PHENYLPROPIONIC ACID AND ITS MEDICINAL USE” (priority 2008, published 2011).
# Tested on: hot plate pain threshold of mice
# Test: hot plate pain threshold of mice
# Format: in vivo
# Conditions: 0.5 h after administration
# Method: On the basis of preliminary test, 90 healthy Kunming species of Mus musculus albus are selected, female, weight 18˜22 g, […], and each group of 10 mice, said tested groups comprising:
# Each group of animals is pasted for 12 h, but drinking ad libitum. Mice are placed on a homoiothermal hot plate (55±0.5[…]), and the time of occurrence of licking foot is recorded as pain threshold. Appropriate mice (whose reaction time of pain is less than 60 seconds) are selected and randomly divided into groups, and pain thresholds are measured twice before administration and the average value is used as base pain threshold. At 0.5 h and 1 hour after intragastric administration of corresponding drugs, the pain threshold of each mouse is measured (if there are no reaction of pain in 60 seconds, then the threshold is considered as 60 second).
# Using Microsoft EXCEL software, the average value of pain threshold of each tested group and the average value of control group are performed t-test analysis, and P<0.05 is considered as statistically significant difference.
smiles,measurement,setting,value
"C[C@@H](C(=O)O)c1ccc2c(c1)CC(=O)c1ccccc1S2 [R, R-10,11-dihydro-alpha-methyl-10-oxo-dibenzo[b,f]tiazem-2-acetic acid]",pain threshold(s) 0.5 h,40 mg/kg ip,20.0 ± 15.7 s
same,pain threshold(s) 0.5 h,80 mg/kg ig,17.5 ± 15.7 s
